In ChEMBL document CHEMBL1132186, “Structure-based design of selective inhibitors of dihydrofolate reductase: synthesis and antiparasitic activity of 2, 4-diaminopteridine analogues with a bridged diarylamine side chain” (J Med Chem, 1999):

Molecular target: T1, Dihydrofolate reductase (Mycobacterium avium, UniProt O30463)
T1 sequence (O30463 whole entry): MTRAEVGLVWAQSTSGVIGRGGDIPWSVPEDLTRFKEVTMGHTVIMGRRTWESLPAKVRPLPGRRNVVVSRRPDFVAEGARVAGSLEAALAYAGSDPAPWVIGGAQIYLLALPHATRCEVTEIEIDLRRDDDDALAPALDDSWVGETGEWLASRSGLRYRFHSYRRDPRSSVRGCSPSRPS
Assay: Inhibitory activity against DHFR (Dihydrofolate reductase) from Mycobacterium avium

In the case of `Nc1nc(N)c2nc(CN3c4ccccc4Oc4ccccc43)cnc2n1`, the IC50 is reported as 2500 nM.
